This is an account of results in patent US20060069123A1, “Substituted dipiperidine CCR2 antagonists” (priority 2004, published 2006).

The target in this assay is T1, CCR2 (Homo sapiens, UniProt P41597).
T1 sequence (P41597 1-360 isoform P41597-2): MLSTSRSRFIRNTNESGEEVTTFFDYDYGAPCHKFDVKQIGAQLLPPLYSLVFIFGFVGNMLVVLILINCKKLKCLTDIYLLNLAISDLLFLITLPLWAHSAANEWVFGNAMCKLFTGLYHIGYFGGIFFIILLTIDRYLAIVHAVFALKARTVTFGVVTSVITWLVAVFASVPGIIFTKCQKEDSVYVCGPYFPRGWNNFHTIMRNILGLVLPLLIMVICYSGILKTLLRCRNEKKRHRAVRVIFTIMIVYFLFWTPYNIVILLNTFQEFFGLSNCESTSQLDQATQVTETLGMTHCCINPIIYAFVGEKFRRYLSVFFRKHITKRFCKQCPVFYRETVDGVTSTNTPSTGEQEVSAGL
To be noted: Inhibition of MCP-1 Binding IC50, 125I labeled MCP-1 binding to CCR2, THP-1 cells.
`CS(=O)(=O)Nc1ccc2c(C3CCN(C(C(=O)O)C4CCN(C(=O)/C=C/c5cc(F)c(F)c(F)c5)CC4)CC3)c[nH]c2c1` (stereo not shown) [Cpd 82]: the IC50 (as a rule, the concentration that gives 50% inhibition) was found to be 110 nM.
Next, `COc1ccc2c(C3CCN(C(CO)C4CCN(C(=O)/C=C/c5cc(F)c(F)c(F)c5)CC4)CC3)c[nH]c2c1` (stereo not shown) [Cpd 132, (2E)-1-(4-{2-hydroxy-1-[4-(6-methoxy-1H-indol-3-yl)-piperidin-1-yl]-ethyl}-piperidin-1-yl)-3-(3,4,5-trifluoro-phenyl)-propenone]: 50 nM; `COc1ccc2c(C3CCN(C(CO)C4CCN(C(=O)/C=C/c5cc(F)c(F)c(F)c5)CC4)CC3)c[nH]c2c1` (stereo not shown) [Cpd 167, (2E)-1-(4-{2-hydroxy-1-[4-(6-methoxy-1H-indol-3-yl)-piperidin-1-yl]-ethyl}-piperidin-1-yl)-3-(3,4,5-trifluoro-phenyl)-propenone]: 73 nM; `CC(=O)NCC(C1CCN(C(=O)/C=C/c2cc(F)c(F)c(F)c2)CC1)N1CCC(c2c[nH]c3ccccc23)CC1` (stereo not shown) [Cpd 213, N-(2-[4-(1H-indol-3-yl)-piperidin-1-yl]-2-{1-[(2E)-3-(3,4,5-trifluoro-phenyl)-acryloyl]-piperidin-4-yl}-ethyl)-acetamide]: 80 nM.
